Reference: patent publication US12337010B2, “Compositions and methods of treatment using nicotinamide mononucleotide” (Washington University, priority 2017, dated 2025)
Like-named read-outs stand apart in the source and are kept apart here.

Conditions: 500 mg/kg oral gavage, 10 min

Substance: 18O-2H nicotinamide mononucleotide [18O-D-NMN]
- uptake into jejunum and ileum (wild-type mice): clearly detected
- decrease of uptake (ileum of Slc12a8KO mice relative to WT): 36%
- decrease of uptake (jejunum of Slc12a8KO mice relative to WT): 46%
